{
  "source": "patent US6043279A",
  "about": "“Compounds having selective activity for retinoid X receptors, and means for modulation of processes mediated by retinoid X receptors” (priority 1997, dated 2000)",
  "key": {"[1]": {"test_system": "RPMI18226, a multiple myeloma", "test": "growth of RPMI18226 tumor cells (cell number, semi-solid medium)", "assay_type": "cell-based, human", "conditions": "cell number and growth in semi-solid medium"}, "[2]": {"test_system": "ME180, a squamous cell carcinoma", "test": "growth of ME180 tumor cells (cell number)", "assay_type": "cell-based, human"}},
  "data": [
    {"substance": "Interferonα2b: Interferon, a compound which affects cellular proliferation", "values": [
      {"measurement": "cell growth", "setting": "[1]", "result": "inhibit cell growth in a concentration-dependent manner"},
      {"measurement": "cell growth", "setting": "[2]", "result": "inhibit cell growth in a concentration-dependent manner"}
    ]}
  ]
}
